# Permeability data for macrocyclic peptides

Data: CycPeptMPDB; original report Furukawa et al. 2016, doi:10.1021/acs.jmedchem.6b01246.

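Conditions beyond the assay type are not listed; see the original paper. Other peptides of the study may be missing here. Entries at the database's floor value (log10 P of -10) are not listed.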

PAMPA is the parallel artificial membrane permeability assay, which has no cells and reads passive diffusion. Values are log10 P with P in cm/s, so -5 is more permeable than -7.

| SMILES | PAMPA (log10 cm/s) |
|---|---|
| CCCC[C@@H]1NC(=O)[C@H](CC(C)C)N(C)C(=O)CN(CCOc2ccccc2)C(=O)[C@H](CC(C)C)NC(=O)CN(CCC)C(=O)[C@H]2CCCN2C1=O | -5.59 |
| CCCC[C@@H]1NC(=O)[C@H](CC(C)C)N(C)C(=O)CN(CC2CCCCC2)C(=O)[C@H](Cc2ccc3ccccc3c2)NC(=O)CN(CCN2CCOCC2)C(=O)[C@H]2CCCN2C1=O | -6.42 |
| CCCC[C@@H]1NC(=O)[C@H](CC(C)C)N(C)C(=O)CN(CCc2cccnc2)C(=O)[C@H](C)NC(=O)CN(CC(C)C)C(=O)[C@H]2CCCN2C1=O | -6.54 |
| CCCC[C@@H]1NC(=O)[C@H](CC(C)C)N(C)C(=O)CN(CCOc2ccccc2)C(=O)[C@H](C)NC(=O)CN(CCCCc2ccccc2)C(=O)[C@H]2CCCN2C1=O | -6.26 |
| CCCCCN1CC(=O)N(C)[C@@H](CC(C)C)C(=O)N[C@@H](CCCC)C(=O)N2CCC[C@@H]2C(=O)N(Cc2ccc(Cl)cc2)CC(=O)N[C@@H](CC(C)C)C1=O | -7.39 |
| CCCC[C@@H]1NC(=O)[C@H](CC(C)C)N(C)C(=O)CN(CC2CCCCC2)C(=O)[C@H](Cc2ccc3ccccc3c2)NC(=O)CN(CC(C)C)C(=O)[C@H]2CCCN2C1=O | -8.71 |
| CCCC[C@@H]1NC(=O)[C@H](CC(C)C)N(C)C(=O)CN(CC2CCCCC2)C(=O)[C@H](Cc2ccc3ccccc3c2)NC(=O)CN(CCCOC(C)C)C(=O)[C@H]2CCCN2C1=O | -6.98 |
| CCCCCN1CC(=O)N(C)[C@@H](CC(C)C)C(=O)N[C@@H](CCCC)C(=O)N2CCC[C@@H]2C(=O)N(CC(C)C)CC(=O)N[C@@H](Cc2ccc3ccccc3c2)C1=O | -8.59 |
| CCCC[C@@H]1NC(=O)[C@H](CC(C)C)N(C)C(=O)CN(CCOC)C(=O)[C@H](CC(C)C)NC(=O)CN(CC(C)C)C(=O)[C@H]2CCCN2C1=O | -5.01 |
| CCCC[C@@H]1NC(=O)[C@H](CC(C)C)N(C)C(=O)CN(CC2CCOCC2)C(=O)[C@H](CC(C)C)NC(=O)CN(CCCCc2ccccc2)C(=O)[C@H]2CCCN2C1=O | -5.36 |
| CCCC[C@@H]1NC(=O)[C@H](CC(C)C)N(C)C(=O)CN(CCc2cccnc2)C(=O)[C@H](CC(C)C)NC(=O)CN(CC(C)C)C(=O)[C@H]2CCCN2C1=O | -5.29 |
| CCCC[C@@H]1NC(=O)[C@H](CC(C)C)N(C)C(=O)CN(CCOc2ccccc2)C(=O)[C@H](Cc2ccccc2)NC(=O)CN(CCN2CCOCC2)C(=O)[C@H]2CCCN2C1=O | -5.76 |
| CCCC[C@@H]1NC(=O)[C@H](CC(C)C)N(C)C(=O)CN(CCOc2ccccc2)C(=O)[C@H](CC(C)C)NC(=O)CN(CCCCc2ccccc2)C(=O)[C@H]2CCCN2C1=O | -7.39 |
| CCCCCN1CC(=O)N(C)[C@@H](CC(C)C)C(=O)N[C@@H](CCCC)C(=O)N2CCC[C@@H]2C(=O)N(Cc2ccc3c(c2)OCO3)CC(=O)N[C@@H](Cc2ccc3ccccc3c2)C1=O | -8.89 |
| CCCC[C@@H]1NC(=O)[C@H](CC(C)C)N(C)C(=O)CN(CC2CCOCC2)C(=O)[C@H](Cc2ccccc2)NC(=O)CN(CC(C)C)C(=O)[C@H]2CCCN2C1=O | -5.07 |
| CCCC[C@@H]1NC(=O)[C@H](CC(C)C)N(C)C(=O)CN(CC2CCCCC2)C(=O)[C@H](CC(C)C)NC(=O)CN(CCCCc2ccccc2)C(=O)[C@H]2CCCN2C1=O | -8.15 |
| CCCC[C@@H]1NC(=O)[C@H](CC(C)C)N(C)C(=O)CN(CCCc2cnn(C)c2)C(=O)[C@H](Cc2ccc3ccccc3c2)NC(=O)CN(CCCCc2ccccc2)C(=O)[C@H]2CCCN2C1=O | -8.00 |
| CCCC[C@@H]1NC(=O)[C@H](CC(C)C)N(C)C(=O)CN(Cc2ccccc2)C(=O)[C@H](CC(C)C)NC(=O)CN(CCC)C(=O)[C@H]2CCCN2C1=O | -5.20 |
| CCCC[C@@H]1NC(=O)[C@H](CC(C)C)N(C)C(=O)CN(Cc2ccccc2)C(=O)[C@H](Cc2ccc3ccccc3c2)NC(=O)CN(CCC)C(=O)[C@H]2CCCN2C1=O | -6.74 |
| CCCCCN1CC(=O)N(C)[C@@H](CC(C)C)C(=O)N[C@@H](CCCC)C(=O)N2CCC[C@@H]2C(=O)N(Cc2ccccc2Cn2cccn2)CC(=O)N[C@@H](CC(C)C)C1=O | -5.59 |
| CCCC[C@@H]1NC(=O)[C@H](CC(C)C)N(C)C(=O)CN(CC2CCOCC2)C(=O)[C@H](CC(C)C)NC(=O)CN(Cc2ccc(Cl)cc2)C(=O)[C@H]2CCCN2C1=O | -5.22 |
| CCCC[C@@H]1NC(=O)[C@H](CC(C)C)N(C)C(=O)CN(CCCc2ccccc2)C(=O)[C@H](Cc2ccccc2)NC(=O)CN(CCCCc2ccccc2)C(=O)[C@H]2CCCN2C1=O | -8.51 |
| CCCC[C@@H]1NC(=O)[C@H](CC(C)C)N(C)C(=O)CN(CC2CCCCC2)C(=O)[C@H](CC(C)C)NC(=O)CN(Cc2ccccc2Cn2cccn2)C(=O)[C@H]2CCCN2C1=O | -6.31 |

2 of these entries, quoted again:

| SMILES | PAMPA (log10 cm/s) |
|---|---|
| CCCC[C@@H]1NC(=O)[C@H](CC(C)C)N(C)C(=O)CN(CC2CCOCC2)C(=O)[C@H](CC(C)C)NC(=O)CN(CCCCc2ccccc2)C(=O)[C@H]2CCCN2C1=O | -5.36 |
| CCCC[C@@H]1NC(=O)[C@H](CC(C)C)N(C)C(=O)CN(CCc2cccnc2)C(=O)[C@H](C)NC(=O)CN(CC(C)C)C(=O)[C@H]2CCCN2C1=O | -6.54 |